Assay results from patent US12319671B2, “1-pyrazolyl, 5-, 6-disubstituted indazole derivatives as LRRK2 inhibitors, pharmaceutical compositions, and uses thereof” (Merck Sharp & Dohme LLC, priority 2019, dated 2025).

The chains behind the UniProt entries cited, without tags or fusion partners. Residues count along the entry.
UniProt Q5S007, 970-2527 G2019S: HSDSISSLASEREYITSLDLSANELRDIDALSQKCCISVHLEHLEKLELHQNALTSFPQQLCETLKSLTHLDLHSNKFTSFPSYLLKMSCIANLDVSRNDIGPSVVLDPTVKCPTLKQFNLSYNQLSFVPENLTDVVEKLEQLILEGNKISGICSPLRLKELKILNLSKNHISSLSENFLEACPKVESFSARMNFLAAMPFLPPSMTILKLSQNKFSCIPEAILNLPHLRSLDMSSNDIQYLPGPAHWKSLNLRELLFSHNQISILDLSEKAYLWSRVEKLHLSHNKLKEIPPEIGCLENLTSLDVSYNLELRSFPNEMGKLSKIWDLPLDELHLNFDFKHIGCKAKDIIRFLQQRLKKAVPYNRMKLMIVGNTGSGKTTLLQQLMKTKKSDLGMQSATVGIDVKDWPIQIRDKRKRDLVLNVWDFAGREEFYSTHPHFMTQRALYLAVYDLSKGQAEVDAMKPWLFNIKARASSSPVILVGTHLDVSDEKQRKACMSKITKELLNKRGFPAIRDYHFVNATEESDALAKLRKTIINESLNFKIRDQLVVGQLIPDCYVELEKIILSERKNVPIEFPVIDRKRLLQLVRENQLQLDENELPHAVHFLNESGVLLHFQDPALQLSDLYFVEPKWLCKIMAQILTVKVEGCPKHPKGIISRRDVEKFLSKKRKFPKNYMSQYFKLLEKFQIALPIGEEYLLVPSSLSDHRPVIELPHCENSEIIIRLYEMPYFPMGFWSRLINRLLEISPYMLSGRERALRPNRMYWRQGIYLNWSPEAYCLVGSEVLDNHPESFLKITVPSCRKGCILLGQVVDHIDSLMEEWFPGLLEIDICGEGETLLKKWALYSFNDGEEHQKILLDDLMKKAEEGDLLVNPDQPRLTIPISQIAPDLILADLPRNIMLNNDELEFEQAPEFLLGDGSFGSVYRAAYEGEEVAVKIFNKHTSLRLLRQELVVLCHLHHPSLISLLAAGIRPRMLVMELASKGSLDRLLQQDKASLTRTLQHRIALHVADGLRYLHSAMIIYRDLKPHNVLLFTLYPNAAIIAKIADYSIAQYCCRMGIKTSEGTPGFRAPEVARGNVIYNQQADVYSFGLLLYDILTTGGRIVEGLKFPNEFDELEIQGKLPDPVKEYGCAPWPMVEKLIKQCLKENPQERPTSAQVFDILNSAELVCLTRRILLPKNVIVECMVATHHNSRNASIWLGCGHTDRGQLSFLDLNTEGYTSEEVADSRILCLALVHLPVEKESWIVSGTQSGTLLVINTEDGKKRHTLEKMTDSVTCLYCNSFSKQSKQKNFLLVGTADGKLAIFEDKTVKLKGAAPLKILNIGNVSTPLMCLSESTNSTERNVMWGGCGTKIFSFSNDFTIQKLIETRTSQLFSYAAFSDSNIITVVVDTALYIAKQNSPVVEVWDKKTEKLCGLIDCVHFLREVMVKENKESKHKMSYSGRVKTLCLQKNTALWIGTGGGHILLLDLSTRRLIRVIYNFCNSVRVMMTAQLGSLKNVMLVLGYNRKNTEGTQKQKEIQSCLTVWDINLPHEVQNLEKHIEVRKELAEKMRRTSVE

Target: GST-tagged truncated human mutant G2019S LRRK2 (Homo sapiens (Human), UniProt Q5S007, G2019S)
Experiment: LRRK2 G2019S Km ATP LanthaScreen Assay
Conditions: comparison of the two enantiomers

relative potency of the two enantiomers from chiral SFC separation: more potent enantiomer
SMILES: CN1CCC(n2cc(-n3ncc4cc(Cl)c(N5CCN(C6(C)COC6)CC5)cc43)cn2)C1=O (single isomer, unassigned) [Example 5.7, (R or S)-3-(4-(5-chloro-6-(4-(3-methyloxetan-3-yl)piperazin-1-yl)-1H-indazol-1-yl)-1H-pyrazol-1-yl)-1-methylpyrrolidin-2-one]
